Laboratory results from PubChem BioAssay AID493225 (Broad Institute, 2011).
This is a selection; strong and weak results do not stand in their true shares. Active and inactive are the calls of the source.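 Rule for the calls: active = fitted curve reaching 40% activation, where positive control equals 100, at or below the top valid dose; inconclusive = flat curve between 30 and 70% activation, or a poor fit; inactive = the rest, including activity in the opposite direction.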

Protein sequences, listed by entry. Tags and fused reporters are not part of them.
UniProt Q16665, whole entry: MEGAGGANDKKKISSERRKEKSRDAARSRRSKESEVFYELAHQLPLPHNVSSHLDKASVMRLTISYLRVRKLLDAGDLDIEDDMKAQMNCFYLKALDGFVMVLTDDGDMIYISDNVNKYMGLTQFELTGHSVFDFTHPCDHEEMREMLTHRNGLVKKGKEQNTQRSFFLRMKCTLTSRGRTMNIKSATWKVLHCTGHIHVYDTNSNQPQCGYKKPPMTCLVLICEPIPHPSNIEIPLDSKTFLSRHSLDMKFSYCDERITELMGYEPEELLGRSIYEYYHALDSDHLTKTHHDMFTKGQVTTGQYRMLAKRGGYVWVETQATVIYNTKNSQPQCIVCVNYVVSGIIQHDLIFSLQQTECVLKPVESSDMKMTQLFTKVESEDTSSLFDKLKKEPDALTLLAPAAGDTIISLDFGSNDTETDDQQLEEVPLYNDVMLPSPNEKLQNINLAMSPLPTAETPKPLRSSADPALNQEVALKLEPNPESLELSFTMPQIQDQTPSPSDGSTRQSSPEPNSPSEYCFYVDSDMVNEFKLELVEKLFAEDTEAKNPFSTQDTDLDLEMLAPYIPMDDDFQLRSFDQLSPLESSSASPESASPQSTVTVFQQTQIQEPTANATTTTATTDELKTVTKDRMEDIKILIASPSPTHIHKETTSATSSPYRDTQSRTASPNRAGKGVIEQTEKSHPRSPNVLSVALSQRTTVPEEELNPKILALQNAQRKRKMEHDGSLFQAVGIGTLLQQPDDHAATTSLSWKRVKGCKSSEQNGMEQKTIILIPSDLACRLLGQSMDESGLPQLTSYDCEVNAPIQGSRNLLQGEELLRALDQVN

Molecular target: Hypoxia-inducible factor 1-alpha (Homo sapiens) (UniProt Q16665)
Assay: GFP-HIF1alpha nuclear accumulation inducers, dose response, orthogonal assay for HIF activator project, imaging, U2OS GFP-HIF1alpha, high content, dry powder, set 2 (AID 493225)
Conditions: U2OS GFP-HIF1alpha nuclear intensity imaging; at 38 µM (top of the series)

Q: How did the activation turn out when `O=c1[nH]c2ccccc2n1C1CCN(Cc2ccc(O)c3ncccc23)CC1` was run?
A: inactive: 17.7%
